This assay has as its target T1, NPR-B (Homo sapiens, UniProt P20594).
T1 construct: a functional assay using endogenously NPR-B expressing GTM-3 cells; endogenous in cells; host or cells: GTM-3 (transformed human trabecular meshwork cells)
T1 sequence (P20594 23-1047): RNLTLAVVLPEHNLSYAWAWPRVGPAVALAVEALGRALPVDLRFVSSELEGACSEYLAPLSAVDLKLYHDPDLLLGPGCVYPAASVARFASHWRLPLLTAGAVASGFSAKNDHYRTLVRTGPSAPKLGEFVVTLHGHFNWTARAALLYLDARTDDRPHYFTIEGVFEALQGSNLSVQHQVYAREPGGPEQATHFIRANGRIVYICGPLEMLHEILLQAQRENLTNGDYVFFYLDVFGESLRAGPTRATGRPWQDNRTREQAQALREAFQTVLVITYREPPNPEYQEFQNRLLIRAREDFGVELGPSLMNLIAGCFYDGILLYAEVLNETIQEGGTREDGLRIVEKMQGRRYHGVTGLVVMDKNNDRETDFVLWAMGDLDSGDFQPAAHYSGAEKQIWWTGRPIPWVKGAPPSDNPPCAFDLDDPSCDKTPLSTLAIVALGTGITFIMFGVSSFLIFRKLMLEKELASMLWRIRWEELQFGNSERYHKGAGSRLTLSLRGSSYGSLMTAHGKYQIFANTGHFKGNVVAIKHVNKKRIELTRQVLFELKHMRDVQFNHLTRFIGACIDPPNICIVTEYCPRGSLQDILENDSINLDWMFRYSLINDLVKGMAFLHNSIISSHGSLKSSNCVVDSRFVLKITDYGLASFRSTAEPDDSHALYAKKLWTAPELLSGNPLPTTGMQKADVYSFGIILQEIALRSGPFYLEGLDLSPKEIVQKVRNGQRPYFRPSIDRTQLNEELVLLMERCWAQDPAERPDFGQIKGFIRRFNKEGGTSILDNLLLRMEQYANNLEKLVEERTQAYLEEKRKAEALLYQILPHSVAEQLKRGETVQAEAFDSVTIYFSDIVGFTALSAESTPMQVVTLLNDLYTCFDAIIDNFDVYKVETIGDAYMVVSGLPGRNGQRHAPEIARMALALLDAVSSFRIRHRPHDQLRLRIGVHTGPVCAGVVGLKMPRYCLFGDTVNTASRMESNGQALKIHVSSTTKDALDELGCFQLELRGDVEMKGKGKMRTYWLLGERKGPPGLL
Briefly: NPR-B induced production of cyclic GMP in GTM-3 cells. The assay is classed as cell-based. Particulars: group needs both EC50 and Emax criteria, checked A then B then C, read-out: Activity (group): NPR-B activation, EC50 and Emax (CNP = 100%). On the procedure: The efficacy and potency of compounds to activate NPR-B were evaluated in a functional assay using endogenously NPR-B expressing GTM-3 cells (Pang et al. 1994, Curr Eye Res 13:51-63). In this assay the dose dependent production of cyclic GMP (cGMP) is determined and Emax (maximum activation) and EC50 values are calculated.
The cell culture medium is aspirated and each well is washed with 200 μl DMEM/Ham's F12=Medium (Gibco). Then, 200 μl Medium supplemented with 1 mM IBMX (3-Isobutyl-1-methyl-xanthin, Sigma) is added to each well and incubated for 15 min. at room temperature.
Final compound concentrations are in the range from 45 μM to 20 nM.

Six molecules from US9458198B1, “Cyclic peptide-based NPR-B agonists” (priority 2009, dated 2016) can be followed below.

Broadly, the EC50 is the concentration that produces a half-maximal response.

In the case of `CC[C@H](C)[C@@H]1NC(=O)[C@H](CCCNC(=N)N)NC(=O)[C@H](CC(=O)O)NC(=O)[C@H](CC(C)C)NC(=O)[C@H](CCCCN)NC(=O)[C@H](CC(C)C)NC(=O)CNC(=O)[C@H](Cc2ccccc2)NC(=O)[C@@H](C)NC(=O)[C@@H](NC(=O)[C@@H](N)CCSC)CCSSCC[C@@H](C(N)=O)NC(=O)[C@H](CO)NC1=O` [compound 60], the EC50 is below 5 µM.
The result for `CCCCCC(=O)N[C@H]1CSSC[C@@H](C(N)=O)NC(=O)[C@H](CO)NC(=O)[C@H]([C@@H](C)CC)NC(=O)[C@H](CCCNC(=N)N)NC(=O)[C@H](CC(=O)O)NC(=O)[C@H](CC(C)C)NC(=O)[C@H](CCCCN)NC(=O)[C@H](CC(C)C)NC(=O)CNC(=O)[C@H](Cc2cccc(C#N)c2)NC(=O)[C@@H](C)NC1=O` [compound 106] reads below 5 µM.
Consider `CC[C@H](C)[C@@H]1NC(=O)[C@H](CCCNC(=N)N)NC(=O)[C@H](CC(=O)O)NC(=O)[C@H](CC(C)C)NC(=O)[C@H](CCCCN)NC(=O)[C@H](CC(C)C)NC(=O)CNC(=O)[C@H](Cc2ccccc2)NC(=O)CCNC(=O)[C@@H](NC(=O)[C@@H](N)CCSC)CSSC[C@@H](C(N)=O)NC(=O)[C@H](CO)NC1=O` [compound 31], for which the EC50 was below 5 µM.
Turning to `CCCCCC(=O)N[C@H]1CSSC[C@@H](C(N)=O)NC(=O)[C@H](CO)NC(=O)[C@H]([C@@H](C)CC)NC(=O)[C@H](CCCNC(=N)N)NC(=O)[C@H](CC(=O)O)NC(=O)[C@H](CC(C)C)NC(=O)[C@H](CCCCN)NC(=O)[C@H](CC(C)C)NC(=O)CNC(=O)[C@H](Cc2cccc([N+](=O)[O-])c2)NC(=O)[C@@H](C)NC1=O` [compound 107], the EC50 was below 5 µM.
In the case of `CCCCCC(=O)N[C@H]1CSSC[C@@H](C(N)=O)NC(=O)[C@H](CO)NC(=O)[C@H]([C@@H](C)CC)NC(=O)[C@H](CCCNC(=N)N(C)C)NC(=O)[C@H](CC(=O)O)NC(=O)[C@H](CC(C)C)NC(=O)[C@H](CCCCN)NC(=O)[C@H](CC(C)C)NC(=O)CNC(=O)[C@H](Cc2ccccc2)NC(=O)[C@@H](C)NC1=O` [compound 99], the EC50 is below 5 µM.
`CCCCCC(=O)N[C@H]1CSSC[C@@H](C(N)=O)NC(=O)[C@H](CO)NC(=O)[C@H]([C@@H](C)CC)NC(=O)[C@H](CCCNc2ccccn2)NC(=O)[C@H](CC(=O)O)NC(=O)[C@H](CC(C)C)NC(=O)[C@H](CCCCN)NC(=O)[C@H](CC(C)C)NC(=O)CNC(=O)[C@H](Cc2ccccc2)NC(=O)[C@@H](C)NC1=O` [compound 111]: the EC50 is below 5 µM.
